We go through one molecule from patent publication US10111890B2, “9-aminomethyl minocycline compounds and uses thereof” (Paratek Pharmaceuticals, Inc., priority 2016, dated 2018).

Structures are written as SMILES. Read-outs that look alike come from different tables or passages of the source.

The nature of the data set: Phase 1 food-effect crossover study: plasma PK after single 300 mg oral dose. The data set is classed as in vivo. Particulars: human, read-out: T1/2, Mean (Coefficient of Variation) (converted). As to the method: These meals were to be consumed within 20 minutes. Dose administration for Treatments B, C, and D was based off of the end time of the meal. […] For statistical analysis, individual PK parameters for omadacycline were summarized with descriptive statistics. Geometric means were determined for AUC and Cmax. PK parameters were evaluated using non-compartmental analysis using Phoenix® WinNonlin® (Pharsight Corp, St. Louis, Mo.), Version 6.2.1. Confidence intervals (CI) for test treatments (fed states: Treatments B, C, and D) compared with the reference treatment (fasted state: Treatment A) were constructed for AUC0-24, AUC0-t, AUC0-inf, and Cmax.

For `CN(C)c1cc(CNCC(C)(C)C)c(O)c2c1C[C@H]1C[C@H]3[C@H](N(C)C)C(O)=C(C(N)=O)C(=O)[C@@]3(O)C(O)=C1C2=O` [Omadacycline, 9-[(2,2-dimethyl-propylamino)-methyl]-minocycline], the half-life by setting is: (Treatment A: fasted overnight) 13.8 h; (Treatment B: high-fat nondairy meal 4 h before dosing) 13.6 h; (Treatment C: high-fat nondairy meal 2 h before dosing) 13.6 h; (Treatment D: high-fat meal incl. dairy 2 h before dosing) 13.5 h.
